Source: publication PMC11019558 (Cell reports, 2024)

Target: the molecule itself
Assay: non-reducing denaturing western blot

B1: endogenous STING (natural protein, human (endogenous in BJ-5ta), UniProt Q86WV6 1-379, looked up)
chain: MPHSSLHPSIPCPRGHGAQKAALVLLSACLVTLWGLGEPPEHTLRYLVLHLASLQLGLLLNGVCSLAEELRHIHSRYRGSYWRTVRACLGCPLRRGALLLLSIYFYYSLPNAVGPPFTWMLALLGLSQALNILLGLKGLAPAEISAVCEKGNFNVAHGLAWSYYIGYLRLILPELQARIRTYNQHYNNLLRGAVSQRLYILLPLDCGVPDNLSMADPNIRFLDKLPQQTGDHAGIKDRVYSNSIYELLENGQRAGTCVLEYATPLQTLFAMSQYSQAGFSREDRLEQAKLFCRTLEDILADAPESQNNCRLIAYQEPADDSSFSLSQEVLRHLRQEEKEEVTVGSLKTSAVPSTSTMSQEPELLISGMEKPLPLRTDFS
- stoichiometry N: 2
